Results reported in US7989613B2, “Inhibition of metallo-β-lactamase by RNA” (priority 2005, dated 2011).

Target: B. cereus 5/B/6 metallo-β-lactamase (Bacillus cereus, UniProt P14488)
Method: Assay of the purified B. cereus 5/B/6 metallo-β-lactamase and B. cereus 569/H/9 β-lactamase I. Metallo-β-lactamase activity assays using cephalosporin C as substrate were determined as previously reported (Myers and Shaw, 1989). The cephalosporin C absorbance maximum at 260 nm was monitored as a function of time (Davies et al., 1974). One unit of activity is generally defined as the amount of enzyme required to catalyze the hydrolysis of about 1 μmol of β-lactam substrate (cephalosporin C) per minute at 30° C. at pH 7.0. […] The assays were carried out at 30° C. in a 0.1 cm path length quartz cell and the total assay volume was 250 μL.
Reversible inhibition studies for metallo-β-lactamase. To test for reversible inhibition, metallo-β-lactamase was incubated with various concentrations of the possible inhibitors in 50 mM MOPS buffer, pH 7.0. The enzyme activity remaining was determined (Myers and Shaw, 1989).
Various assays were conducted with the 30-mer RNA in the presence of metallo-β-lactamase to determine its inhibition values (IC50, Ki, and Ki′). […]
30-mer RNA. The IC50 value for the 30-mer RNA was determined by measuring the rate of enzymatic hydrolysis of cephalosporin C with different amounts of the 30-mer RNA.

5′-GGGUCUGGCCC-3′ [11-mer RNA]
IC50 (read-out: IC50 for B. cereus 5/B/6 metallo-β-lactamase, 4.3 mM cephalosporin C, 50 mM MOPS pH 7.0, no added Zn2+): 0.43 µM
IC50 / inhibition of metallo-β-lactamase, range in words (stated in words): nanomolar range
